Source: the NIST ThermoML archive (doi:10.1016/j.jct.2011.11.021)

Experiment: activity coefficient (dimensionless); of the first substance listed, at infinite dilution; xn = mol fraction of the nth substance listed
Conditions: Liquid, Chromatography, x1 = 0

CCCCOCCCC [dibutyl ether] + COCC[N+]1(C)CCOCC1.O=S(=O)([N-]S(=O)(=O)C(F)(F)F)C(F)(F)F
Conditions | activity coefficient
318.15 K | 26.8 ± 1.8
328.15 K | 24.9 ± 1.7
338.15 K | 23.3 ± 1.6
348.15 K | 21.8 ± 1.5
358.15 K | 20.4 ± 1.4
368.15 K | 19.2 ± 1.3

± gives the expanded uncertainty stated by the source.
